Measurements reported in patent US20050234066A1, “Alpha substituted carboxylic acids” (Agouron Pharmaceuticals, Inc., priority 2004, published 2005).
Where “and” joins values, the source holds several entries; their conditions need not be identical. Identical values can stand only once.

Chains of the proteins cited; added tags and fusions are not shown.
UniProt P37231, whole entry: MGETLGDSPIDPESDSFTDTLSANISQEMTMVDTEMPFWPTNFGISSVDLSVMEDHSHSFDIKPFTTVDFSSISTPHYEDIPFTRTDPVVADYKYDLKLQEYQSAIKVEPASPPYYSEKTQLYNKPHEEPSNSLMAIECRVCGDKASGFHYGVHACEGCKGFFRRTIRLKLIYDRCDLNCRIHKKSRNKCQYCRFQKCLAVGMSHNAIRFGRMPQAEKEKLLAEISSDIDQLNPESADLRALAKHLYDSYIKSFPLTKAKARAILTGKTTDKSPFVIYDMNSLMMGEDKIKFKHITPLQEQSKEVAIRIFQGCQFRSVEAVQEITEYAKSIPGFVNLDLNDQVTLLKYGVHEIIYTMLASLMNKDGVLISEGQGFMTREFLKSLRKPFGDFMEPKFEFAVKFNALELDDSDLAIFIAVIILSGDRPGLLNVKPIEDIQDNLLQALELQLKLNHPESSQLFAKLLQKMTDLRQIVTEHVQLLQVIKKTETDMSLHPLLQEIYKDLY
UniProt Q07869, whole entry: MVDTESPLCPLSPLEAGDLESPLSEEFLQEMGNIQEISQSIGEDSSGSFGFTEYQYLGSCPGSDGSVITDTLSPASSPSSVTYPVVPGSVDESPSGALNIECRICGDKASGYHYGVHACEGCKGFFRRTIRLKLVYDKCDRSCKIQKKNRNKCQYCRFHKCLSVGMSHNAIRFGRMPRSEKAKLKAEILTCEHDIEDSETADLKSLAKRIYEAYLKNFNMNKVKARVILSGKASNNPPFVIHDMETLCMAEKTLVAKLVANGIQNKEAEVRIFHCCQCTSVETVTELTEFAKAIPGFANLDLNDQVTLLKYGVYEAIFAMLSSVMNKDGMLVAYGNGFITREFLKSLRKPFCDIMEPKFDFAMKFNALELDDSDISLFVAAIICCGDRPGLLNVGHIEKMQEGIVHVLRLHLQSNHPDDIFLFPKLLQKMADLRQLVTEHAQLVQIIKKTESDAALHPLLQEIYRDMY

Key:
PPAR-γ = PPAR-γ (Homo sapiens, UniProt P37231); test: Scintillation Proximity Assay (SPA), displacement of 3H labeled darglitazone; type: binding; settings: read-out: PPAR-gamma Ki, 3H darglitazone displacement
PPAR-α = PPAR-α (Homo sapiens, UniProt Q07869); test: Scintillation Proximity Assay (SPA), displacement of 3H labeled GW2331; type: binding; settings: read-out: PPAR-alpha Ki, 3H GW2331 displacement

Compound	Ki (PPAR-γ)	Ki (PPAR-α)
CCOC(Cc1ccc(OCCc2nc(-c3ccccc3)sc2C)cn1)C(=O)O (single isomer, unassigned)		670 nM
COc1ccc(-c2nc(CCOc3ccc(CC4(C(=O)O)CCCO4)nc3)c(C)o2)cc1 (single isomer, unassigned)		400 nM
Cc1oc(-c2ccccc2)nc1CCCc1ccc(CC2(C(=O)O)CCCO2)cn1 (single isomer, unassigned)	470 nM	4200 nM
CCOC(Cc1cccc(-c2cccc(OCCc3nc(-c4ccccc4)oc3C)c2)c1)C(=O)O (single isomer, unassigned) [A-28 E/M]	44 nM	930 nM

The next lines start with the values.

Ki (PPAR-γ)	Ki (PPAR-α)	Compound
44 nM	250 nM	Cc1sc(-c2ccccc2)nc1CCOc1ccc(CC2(C(=O)O)CCCO2)cn1 (stereo not drawn)
1200 nM and 690 nM	3000 nM	COC(C)(Cc1ccc(OCCc2nc(-c3ccccc3)oc2C)cn1)C(=O)O (single isomer, unassigned)
	14 nM	Cc1oc(-c2ccccc2)nc1CCOc1ccc(CC2(C(=O)O)CCCO2)cc1 (single isomer, unassigned)
330 nM	2600 nM	CCC(Oc1cccc(-c2cccc(OCCc3nc(-c4ccccc4)oc3C)c2)c1)C(=O)O (single isomer, unassigned) [A-05 E/M]
	6500 nM	CCOC(Cc1ccc(OCCc2nc(-c3ccccc3)oc2C)cn1)C(=O)O (single isomer, unassigned) [D-23 E/M]
	1100 nM	CCOC(Cc1ccc(OCCc2nc(-c3ccccc3)oc2C)cn1)C(=O)O (single isomer, unassigned) [D-23 S/E]
